Data published in US4900748A (priority 1988, dated 1990).
Where two headings read alike, the source gives them in different places.

Amino acid sequences for entries named in this document (tags omitted). Residues count along the entry.
UniProt O42275, 24-633: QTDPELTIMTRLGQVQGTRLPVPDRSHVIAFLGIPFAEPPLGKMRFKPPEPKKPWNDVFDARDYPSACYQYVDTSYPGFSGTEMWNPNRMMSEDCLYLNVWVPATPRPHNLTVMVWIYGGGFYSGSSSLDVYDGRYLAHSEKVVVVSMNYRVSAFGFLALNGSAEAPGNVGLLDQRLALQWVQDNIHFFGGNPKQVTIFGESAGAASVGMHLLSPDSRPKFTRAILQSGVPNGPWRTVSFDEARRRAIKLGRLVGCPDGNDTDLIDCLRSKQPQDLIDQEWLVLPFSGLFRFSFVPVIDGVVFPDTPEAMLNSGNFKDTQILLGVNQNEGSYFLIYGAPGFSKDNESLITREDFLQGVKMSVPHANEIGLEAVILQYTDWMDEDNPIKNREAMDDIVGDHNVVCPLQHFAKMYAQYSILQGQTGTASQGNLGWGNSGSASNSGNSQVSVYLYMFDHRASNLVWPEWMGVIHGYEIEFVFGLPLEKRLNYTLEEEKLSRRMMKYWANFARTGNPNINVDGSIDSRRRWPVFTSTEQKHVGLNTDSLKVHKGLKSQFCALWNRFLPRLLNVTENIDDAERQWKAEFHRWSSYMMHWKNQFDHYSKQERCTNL
UniProt P22303, 32-614: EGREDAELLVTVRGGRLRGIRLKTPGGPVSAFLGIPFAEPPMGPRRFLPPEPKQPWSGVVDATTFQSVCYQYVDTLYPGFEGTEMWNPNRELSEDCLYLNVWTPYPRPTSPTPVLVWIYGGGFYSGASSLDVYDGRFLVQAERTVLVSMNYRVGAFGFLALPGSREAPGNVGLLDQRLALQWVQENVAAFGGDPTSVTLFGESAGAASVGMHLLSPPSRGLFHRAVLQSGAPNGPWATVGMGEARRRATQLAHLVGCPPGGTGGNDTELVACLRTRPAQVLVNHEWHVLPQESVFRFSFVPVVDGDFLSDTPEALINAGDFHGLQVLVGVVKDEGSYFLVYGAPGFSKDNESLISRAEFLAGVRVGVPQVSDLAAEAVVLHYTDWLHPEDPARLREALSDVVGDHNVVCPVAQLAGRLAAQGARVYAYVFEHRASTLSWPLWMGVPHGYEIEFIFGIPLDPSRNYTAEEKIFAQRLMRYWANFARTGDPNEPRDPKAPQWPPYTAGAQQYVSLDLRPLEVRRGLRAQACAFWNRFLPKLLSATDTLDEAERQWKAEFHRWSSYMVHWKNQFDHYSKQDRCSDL
UniProt P06276, 29-602: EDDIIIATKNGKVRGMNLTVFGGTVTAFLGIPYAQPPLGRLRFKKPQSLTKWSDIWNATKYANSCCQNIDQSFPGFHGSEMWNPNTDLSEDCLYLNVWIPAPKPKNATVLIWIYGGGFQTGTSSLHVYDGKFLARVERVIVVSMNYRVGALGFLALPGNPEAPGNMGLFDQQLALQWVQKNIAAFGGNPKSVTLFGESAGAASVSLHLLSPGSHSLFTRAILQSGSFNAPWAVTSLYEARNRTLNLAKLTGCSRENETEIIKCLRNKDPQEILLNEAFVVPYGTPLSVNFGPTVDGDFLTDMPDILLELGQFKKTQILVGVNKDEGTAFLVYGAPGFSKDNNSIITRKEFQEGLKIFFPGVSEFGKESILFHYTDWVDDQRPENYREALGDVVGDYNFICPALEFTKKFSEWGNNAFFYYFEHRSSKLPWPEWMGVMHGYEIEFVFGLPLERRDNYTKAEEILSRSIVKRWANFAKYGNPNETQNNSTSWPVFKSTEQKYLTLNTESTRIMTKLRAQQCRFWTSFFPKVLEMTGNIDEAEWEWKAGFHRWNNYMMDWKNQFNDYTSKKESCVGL

Legend:
[1] = molecular target: Acetylcholinesterase (Eel) (Electrophorus electricus, UniProt O42275); assay: biochemical; type: biochemical
[2] = molecular target: Acetylcholinesterase (Caudate) (Homo sapiens, UniProt P22303); assay: biochemical
[3] = molecular target: Butyrylcholinesterase (Cortex) (Homo sapiens, UniProt P06276); assay: biochemical
[4] = molecular target: Acetylcholinesterase (Cortex) (Homo sapiens, UniProt P22303); assay: biochemical; type: biochemical
[5] = molecular target: Acetylcholinesterase (RBC) (Homo sapiens, UniProt P22303); type: biochemical
[6] = molecular target: Butyrylcholinesterase (Plasma) (Homo sapiens, UniProt P06276); assay: biochemical
acetylcholinesterase = type: biochemical; details: read-out: IC50, antiacetylcholinesterase (approximate)
[7] = read-out: IC50 Acetylcholinesterase Eel
[8] = read-out: IC50 Acetylcholinesterase Cortex

CNC(=O)Oc1ccc2c(c1)[C@]1(C)CCN(C)[C@@H]1N2C [(-) physo, (-)-physostigmine, reference compound]
IC50 [1, 7]: 61 ± 18 nM

C=CC[N+](C)(C)c1ccc(CCC(=O)CCc2ccc([N+](C)(C)CC=C)cc2)cc1 [BW284c51, reference compound]
IC50 [2]: 22 nM | IC50 [3]: 300000 nM | IC50 [4]: 28 nM

CCCCCCCCNC(=O)Oc1ccc2c(c1)[C@]1(C)CCN(C)[C@@H]1N2C [YU-71, eseroline octylcarbamate]
IC50 [2]: 12 ± 10 nM | IC50 [5]: 16 ± 4 nM | IC50 [4, 8]: 15 ± 1 nM | IC50 [1]: 110 nM | IC50 [1, 7]: 110 ± 110 nM

CNC(=O)Oc1ccc2c(c1)[C@]1(C)CCN(Cc3ccccc3)[C@@H]1N2C [YU-94, N--benzylphysostigmine]
IC50 [3]: 54.2 ± 19 nM | IC50 [6]: 10.5 ± 3.8 nM

CNC(=O)Oc1ccc2c(c1)[C@]1(C)CCN[C@@H]1N2C [YU-96, N--norphysostigmine]
IC50 ([3]; read-out: IC50 Butyrylcholinesterase Cortex): 34.9 ± 16.9 nM | IC50 [1]: 56.3 ± 1.8 nM | IC50 [6]: 1.82 ± 0.74 nM

C=CCN1CC[C@@]2(C)c3cc(OC(=O)NC)ccc3N(C)[C@@H]12 [YU-110, N--allyl physostigmine]
IC50 [2]: 40.8 ± 18.7 nM | IC50 [5]: 44.7 ± 26 nM | IC50 [4, 8]: 31.7 ± 10.2 nM | IC50 [1, 7]: 69.2 ± 25.3 nM

COc1ccc(NC(=O)Oc2ccc3c(c2)[C@]2(C)CCN(C)[C@@H]2N3C)cc1 [YU-114, methoxyphenyl carbamoyleseroline]
IC50 [2]: 276 ± 9 nM | IC50 (acetylcholinesterase): ~300 nM | IC50 [5]: 347 ± 10 nM | IC50 [4, 8]: 229 ± 40 nM

CC(C)NP(=O)(NC(C)C)OP(=O)(NC(C)C)NC(C)C [iso-OMPA, reference compound]
IC50 [3]: 6700 nM
